Patent publication US7238720B2, “Pharmaceutical use of N-carbamoylazole derivatives” (Eisai R & D Management Co. Ltd., priority 2001, dated 2007)

Chains of the proteins cited; added tags and fusions are not shown.
UniProt P22411, whole entry: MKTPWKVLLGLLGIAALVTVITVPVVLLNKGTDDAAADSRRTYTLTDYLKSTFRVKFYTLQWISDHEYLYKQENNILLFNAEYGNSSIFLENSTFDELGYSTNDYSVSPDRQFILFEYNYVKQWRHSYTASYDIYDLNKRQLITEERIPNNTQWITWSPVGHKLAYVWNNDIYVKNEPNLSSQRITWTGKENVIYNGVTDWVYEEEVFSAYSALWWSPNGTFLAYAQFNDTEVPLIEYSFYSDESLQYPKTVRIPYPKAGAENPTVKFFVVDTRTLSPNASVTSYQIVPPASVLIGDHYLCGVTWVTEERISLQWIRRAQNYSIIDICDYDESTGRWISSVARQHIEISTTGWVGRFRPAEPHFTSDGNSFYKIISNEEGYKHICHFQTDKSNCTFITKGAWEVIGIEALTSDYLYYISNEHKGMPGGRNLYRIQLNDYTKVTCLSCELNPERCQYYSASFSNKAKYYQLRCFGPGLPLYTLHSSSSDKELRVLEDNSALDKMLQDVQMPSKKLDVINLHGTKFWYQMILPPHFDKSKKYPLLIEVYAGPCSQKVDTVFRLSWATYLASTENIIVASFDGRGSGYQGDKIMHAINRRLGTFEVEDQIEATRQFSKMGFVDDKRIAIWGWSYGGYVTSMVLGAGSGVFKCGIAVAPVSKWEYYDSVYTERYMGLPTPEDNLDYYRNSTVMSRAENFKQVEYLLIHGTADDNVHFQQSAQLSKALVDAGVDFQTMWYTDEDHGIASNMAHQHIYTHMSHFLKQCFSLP

Target: DPP-IV, obtained from porcine kidneys (Sus scrofa, UniProt P22411)
Experiment: Measurement of DPPIV inhibiting effects (Gly-Pro-p-nitroanilide, absorbance at 405 nm)
Format: biochemical
Conditions: porcine kidney DPP-IV 10 mU/mL, 20 min preincubation, Gly-Pro-p-nitroanilide 0.33 mM, pH 7.4

Cc1cccc(OCC(F)(F)F)c1Sc1ncn(C(=O)N(C)C)n1
IC50: 2100 nM
